As usually defined, the IC50 is the concentration needed to halve the response being measured.

Amino acid sequences for entries named in this document (tags omitted). Residues count along the entry.
UniProt O14965, whole entry: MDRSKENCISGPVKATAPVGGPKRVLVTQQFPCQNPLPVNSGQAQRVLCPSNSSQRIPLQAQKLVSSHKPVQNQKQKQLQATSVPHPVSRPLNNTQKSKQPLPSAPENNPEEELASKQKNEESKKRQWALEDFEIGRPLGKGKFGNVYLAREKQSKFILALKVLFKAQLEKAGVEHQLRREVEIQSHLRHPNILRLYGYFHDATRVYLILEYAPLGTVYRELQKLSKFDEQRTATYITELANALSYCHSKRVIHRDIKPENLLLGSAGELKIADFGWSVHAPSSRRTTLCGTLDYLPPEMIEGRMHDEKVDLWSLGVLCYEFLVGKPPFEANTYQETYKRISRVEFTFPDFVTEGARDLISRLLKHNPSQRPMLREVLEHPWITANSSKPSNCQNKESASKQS
UniProt Q02763, 776-1124 limits assumed: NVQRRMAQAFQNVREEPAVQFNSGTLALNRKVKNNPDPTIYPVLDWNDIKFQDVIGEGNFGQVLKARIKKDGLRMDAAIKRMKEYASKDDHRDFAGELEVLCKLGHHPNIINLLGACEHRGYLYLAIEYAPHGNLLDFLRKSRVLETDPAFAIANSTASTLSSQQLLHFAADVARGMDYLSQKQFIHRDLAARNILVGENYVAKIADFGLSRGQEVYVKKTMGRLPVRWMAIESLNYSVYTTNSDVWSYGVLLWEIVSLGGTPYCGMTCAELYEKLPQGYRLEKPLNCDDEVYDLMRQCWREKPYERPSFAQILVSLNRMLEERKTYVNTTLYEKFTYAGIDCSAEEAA
UniProt P35968, 786-1356 limits assumed: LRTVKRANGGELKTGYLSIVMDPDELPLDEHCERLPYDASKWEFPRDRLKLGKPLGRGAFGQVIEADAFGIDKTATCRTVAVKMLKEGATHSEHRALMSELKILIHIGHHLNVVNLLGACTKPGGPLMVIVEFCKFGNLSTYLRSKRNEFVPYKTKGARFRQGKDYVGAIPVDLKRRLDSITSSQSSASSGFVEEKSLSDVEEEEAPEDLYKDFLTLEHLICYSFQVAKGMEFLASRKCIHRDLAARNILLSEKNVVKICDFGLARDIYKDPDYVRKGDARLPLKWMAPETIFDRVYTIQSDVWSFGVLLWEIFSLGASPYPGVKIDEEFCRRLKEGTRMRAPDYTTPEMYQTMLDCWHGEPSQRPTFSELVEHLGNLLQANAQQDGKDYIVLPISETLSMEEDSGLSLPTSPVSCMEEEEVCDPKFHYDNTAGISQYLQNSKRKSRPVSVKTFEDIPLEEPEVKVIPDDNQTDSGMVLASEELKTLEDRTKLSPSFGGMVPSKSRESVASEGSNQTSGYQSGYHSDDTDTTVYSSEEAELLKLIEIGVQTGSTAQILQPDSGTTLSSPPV

For one assay, the target named is Aurora2 kinase (Homo sapiens, UniProt O14965). The note with it: read-out: Au2 IC50.
Another assay concerns the target CDK2/cyclin E (Homo sapiens, UniProt P24941). The assay is described as follows: CDK2/cyclin E Flashplate assay in 96-well format. The class given is biochemical. The note with it: read-out: CDK2 IC50.
The target of a further assay is human Tie2 (Homo sapiens, UniProt Q02763). The assay is described as follows: Assay for phosphorylation of PLC by Tie2 (GST-Tie2, Flashplate). The class given is biochemical. Conditions: read-out: TIE2 IC50.
The target of another assay is human KDR enzyme (Homo sapiens, UniProt P35968). The assay is described as follows: In vitro KDR enzyme substrate phosphorylation assay (scintillation). The class given is biochemical. Conditions: read-out: KDR IC50.

Some compounds may have been tested in ways that are not shown here.

On to “Methylphosphonic acid 3-[6-(2-diethylamino-ethoxy)-1H-indol-2-yl]-1-indazol-5-yl ester methyl ester”, for which the IC50 amounted to 17 nM at Aurora2 kinase, 128 nM on CDK2/cyclin E, 13 nM at human Tie2 and 122 nM at human KDR enzyme.

(Values after patent US7491710B2 (priority 2003, dated 2009).)
